From ChEMBL document CHEMBL6153072, “Metabolically Stable Adenylation Inhibitors of Biotin Protein Ligase as Antibacterial Agents” (J Med Chem, 2025)

Experiments:
[1] = target: T1, Biotin--[acetyl-CoA-carboxylase] ligase (Mycobacterium tuberculosis (strain ATCC 25618 / H37Rv)) (UniProt I6YFP0); test: Binding affinity to Mycobacterium tuberculosis BPL assessed as change in gibbs free energy by isothermal titration calorimetry
T1 sequence (whole entry): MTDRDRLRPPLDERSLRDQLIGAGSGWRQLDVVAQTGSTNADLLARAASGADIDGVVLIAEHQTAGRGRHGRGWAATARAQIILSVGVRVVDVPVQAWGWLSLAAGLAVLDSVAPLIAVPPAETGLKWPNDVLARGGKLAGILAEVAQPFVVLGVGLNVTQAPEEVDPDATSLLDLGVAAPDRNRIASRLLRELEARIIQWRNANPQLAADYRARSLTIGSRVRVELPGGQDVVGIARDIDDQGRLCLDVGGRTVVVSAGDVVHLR

[2] = target: T1, Biotin--[acetyl-CoA-carboxylase] ligase (Mycobacterium tuberculosis (strain ATCC 25618 / H37Rv)); test: Binding affinity to Mycobacterium tuberculosis BPL assessed as change in enthalpy by isothermal titration calorimetry

Compound `Nc1ncnc2c1ncn2[C@@H]1O[C@H](CNS(=O)(=O)[N-]C(=O)NCCC[C@@H]2SC[C@@H]3NC(=O)N[C@@H]32)[C@@H](O)[C@H]1O.[Na+]` has a deltaG [1] of -46.4 kJ/mol and a deltaH [2] of -48.5 kJ/mol.
